This is an account of results in publication PMC6789442, “Unraveling Hepcidin Plasma Protein Binding: Evidence from Peritoneal Equilibration Testing” (Pharmaceuticals, 2019).

The conditions of data set [1]: in vivo. The procedure: (§1) All were centrifuged at 2000 g for 10 min.
(§2) Measurements of urea, creatinine, and IgG were performed on a Cobas C8000 random access analyzer (Roche Diagnostics, Basel, Switzerland).
(§3) This MS-based assay determines total hepcidin (i.e., the sum of bound and unbound fraction). Peptide spectra were generated on a Microflex LT […] laser desorption/ionisation TOF MS platform (Bruker Daltonics, Hamburg, Germany). Hepcidin concentrations were expressed as nmol/L. The lower limit of quantification of this method was 0.5 nM.
Testosterone and cortisol in peritoneal dialysate were analyzed by LC-MS/MS after solid-phase extraction. Sample preparation consisted of internal standard addition [13C3]-testosterone (Isoscience, Ambler, PA, USA) and […] (Isoscience) to 1000 µL dialysate and solid phase extraction (SPE) using Oasis® MCX 1cc cartridges (Waters Corp, Milford, MA, USA).
Columns were pre-equilibrated with 1 mL MeOH:IPA (95:5) and subsequently washed with 1 mL H2O. After application of the sample, columns were washed with 1 mL H2O:NH4OH (95:5) and 1 mL MeOH:H2O (20/80) + 2% HCOOH. The 300 µL eluate (MeOH) was dried under a stream of N2 gas, reconstituted in MeOH:H2O (30:70). […] Two mass transitions were monitored for each analyte and the internal standards. The first transition was used for quantification, the second for confirmation. […]

The conditions of data set [2]: in vivo. As to the method: as §1, §2, §3
Cortisol and testosterone were analyzed by Liquid Chromatography-Mass Spectrometry (LC-MS/MS) after protein precipitation and solid-phase extraction. Internal standard [^2H4]-cortisol and [^13C3]-testosterone (Isoscience, Ambler, PA, USA) was added to 100 µL serum. Subsequently, 300 µL acetonitrile with 0.1% formic acid was added for protein precipitation and 300 µL H2O was added to 200 µL supernatant followed by solid phase extraction (Oasis HLB 1cc, Waters, Milford, MA, USA). […] Two transitions (qualitative and quantitative) were monitored. […]
The source holds these as a separate data set.

A short description of data set [3]: Peritoneal clearance from peritoneal equilibration test (PET). To be noted: [Dialysate] t = 1 h / [Blood] t = 0 h × dialysate volume / 60 min, total blood concentration, ESRD patients in PET, N 14, 13 testosterone, 10 cortisol, 13 hepcidin.

In the case of “β2-microglobulin: endogenous freely circulating plasma protein”, in data set [1], the “[Dialysate] t = 1 h Mean (sd)” value was 1.4 (0.9) mg/L. Moreover, the “[Plasma] t = 0 h Mean (sd)” value in data set [2] is 18.7 (5.0) mg/L. The “Peritoneal Clearance t = 0–1 h Mean (sd)” value in data set [3] is 2804.0 (1587.8) µL/min.
In the case of “Albumin: endogenous plasma protein, freely circulating solute of the curve”, the “[Dialysate] t = 1 h Mean (sd)” value in data set [1] is given as 0.2 (0.1) g/L. Moreover, in data set [2], the “[Plasma] t = 0 h Mean (sd)” value is 32.1 (4.9) g/L. In data set [3], the “Peritoneal Clearance t = 0–1 h Mean (sd)” value was 242.3 (164.2) µL/min.
